Values quoted from earlier work as cited in patent EP0005248A2, “Tetrapeptidehydrazide derivatives and process for their preparation” (Takeda Chemical Industries, Ltd., priority 1978, dated 1979).

H-Tyr-Gly-Gly-Phe-Leu-OH
morphinomimetic action (directly administered by the intracerebral route): display a morphinemimetic action
analgesic action (intravenous administration): do not have an analgesic action
